Test results as given in patent publication US20180179198A1, “TRICYCLIC MODULATORS OF TNF SIGNALING” (AbbVie Inc., priority 2015, published 2018).

Amino acid sequences for entries named in this document (tags omitted). Residues count along the entry.
UniProt P01375, 77-233 limits assumed: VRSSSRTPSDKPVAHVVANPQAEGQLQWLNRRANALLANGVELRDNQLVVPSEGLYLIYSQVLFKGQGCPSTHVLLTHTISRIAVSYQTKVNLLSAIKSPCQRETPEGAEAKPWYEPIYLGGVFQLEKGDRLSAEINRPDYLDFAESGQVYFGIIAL

Each molecule was assayed against TNFα trimer (Homo sapiens, UniProt P01375) (assay: TNFα FP Competitive Binding Assay). Details: read-out: TNF IC50, class symbols A/B/C.
Protocol: TNFα FP Competitive Binding Assay
• 1. Assay Buffer: Prepare 1× Assay Buffer (Water with 47 mM HEPES, 47 mM NaCl, 0.9 mM EDTA, 0.0071% Triton X-100) by adding 25 mL of 1 M HEPES, 5 mL of 5 M NaCl, 1 mL of 0.5 M EDTA, and 375 μL of a 10% Triton X-100 stock to a fresh 500 mL bottle of water. • 2. Assay Mixture: Prepare fresh Assay Mixture containing 20 nM TNFα trimer (60 nM protein) and 1 nM 2′,7′-difluoro-3′,6′-dihydroxy-N-(2-(2-(2-((4-(isoquinolin-8-yl)-3-(4-(isoquinolin-8-yl)phenethoxy)benzyl)oxy)ethoxy)ethoxy)ethyl)-3-oxo-3H-spiro[isobenzofuran-1,9′-xanthene]-5-carboxamide probe in 1× Assay Buffer.
Compound Plate Preparation
Manual 12-point 1:3 Dilution Plates: (384 well polypropylene plates)
Top concentration of compounds, 10 mM in DMSO, dispensed in rows A-O in columns 1 and 13. Compounds are serially diluted 1:3 with DMSO in columns 2-12 or 14-24 using a 16-channel Matrix pipettor. Plates stored at −20° C.
Discovery Preps 12-point 1:3 Dilution Plates: (384 well assay plates)
Top concentration, 5 mM in DMSO, of compounds placed in rows A-O in columns 1 and 13. Compounds are serially diluted 1:3 with DMSO in columns 2-12 or 14-24. Compound solutions are dispensed into replicate assay plates at 410 nL per well. Plates stored at 4° C.
TNFα FP Competitive Binding Assay Protocol
• 1. Compound plates are warmed to rt. • 2. Fresh Assay Mixture is prepared. • 3. Assay Mixture (20 μL) is dispensed each well of 384 assay plates using a Thermo Multidrop Combi or 16-channel Matrix pipettor. If Manual 12-point 1:3 Dilution Plates are to be tested, Assay Mix is dispensed into empty plates. Discovery Preps 12-point 1:3 Dilution Plates already contain 410 nL compound solution in DMSO. • 4. […] Prior to reading the assay, the plates are placed in a dark cabinet to equilibrate at rt for one hour. • 9. Background-subtracted fluorescence polarization (mP) is measured using a PerkinElmer Envision plate reader. • 10. […]

| Compound | IC50 [µM] |
| --- | --- |
| O=C1NC[C@@H]2CN(c3ncc(-c4ccc5nc6n(c5n4)[C@@]4(COC6)COc5ccccc54)cn3)CCN12 | < 1 |
| COc1ccccc1C1CCOc2nc3ccc(-c4cnc(C(C)(C)O)nc4)cn3c21 (stereo not drawn) | 1 to 10 |
| CN(C)CCCOc1ccc(-c2ccc3nc4n(c3c2)C(c2ccccc2)COC4)cn1 (stereo not drawn) | 10 to 100 |
